Experimental findings from PubChem BioAssay AID743171 (National Center for Advancing Translational Sciences (NCATS), 2013) are described below.

Amino acid sequences for entries named in this document (tags omitted). A change or cut given only in a name is not applied to a line headed by its entry.
UniProt P15428: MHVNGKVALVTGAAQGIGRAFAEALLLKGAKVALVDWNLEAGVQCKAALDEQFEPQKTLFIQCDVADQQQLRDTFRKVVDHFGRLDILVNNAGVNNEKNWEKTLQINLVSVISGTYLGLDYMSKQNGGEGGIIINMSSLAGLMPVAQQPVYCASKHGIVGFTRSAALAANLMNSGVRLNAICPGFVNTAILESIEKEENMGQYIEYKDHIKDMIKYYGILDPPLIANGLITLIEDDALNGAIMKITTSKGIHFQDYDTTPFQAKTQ

SMILES strings stand for the structures. Values joined by “and” are separate entries in the source; they are usually repeats but may differ in a detail not shown here. Equal entries are not always repeated. Only a part is listed here, and it is no random draw. Results filed as inconclusive are left out. Active and inactive are the calls of the source. Calls follow the shape of the dose curve; as a rule, active = well fitted inhibition curve with a large enough effect; inconclusive = small, poorly fitted or top-dose-only effect; inactive = flat fitted curve, though single readings scatter.

This assay has as its target 15-hydroxyprostaglandin dehydrogenase [NAD(+)] (Homo sapiens) (UniProt P15428). The assay is described as follows: Extended Characterization of HPGD Inhibitors: Activity in Primary Assay (HPGD). Particulars: recombinant HPGD, NADH fluorescence, PGE2 substrate. The text has this: The central role of HPGD is to inactivate prostaglandins such as prostaglandin E2 (PGE2) or prostaglandin D2 (PGD2). These prostaglandins are involved in a number of processes, including inflammation, differentiation, and cellular signaling, which makes HPGD an important target for pharmacological intervention. Inhibition of 15-PGDH (HPGD) activity was screened by utilizing prostaglandin as an electron donor and NAD+ as an electron acceptor/cofactor. An increase in the fluorescence intensity due to conversion of NAD+ to NADH was used to measure the enzyme activity. All compounds were screened using a qHTS approach, where compounds are assayed using at least seven concentrations to generate concentration-response curves for every compound. […]
Three uL of enzyme (20 nM final concentration) were dispensed to 1536-well Greiner black solid bottom plates. […] The plates were immediately transferred to and read 4 times every 30 seconds on a ViewLux High-throughput CCD imager (Perkin-Elmer) using 340 nm excitation and 450 nm emission fluorescence protocol. The fluorescence intensity difference between the last and the first time points, normalized against controls, was used to compute reaction progress.

In the case of `N#Cc1ccccc1CSc1nc2ncc(Br)cc2[nH]1`, the Potency was active: 121 nM and active: 96.1 nM and active: 48.2 nM.
